The term IC50 denotes the concentration at which inhibition is half-maximal.

Sequences of proteins named here, by UniProt entry; tags and fusion partners are left off. A change or cut given only in a name is not applied to a line headed by its entry.
UniProt O60502: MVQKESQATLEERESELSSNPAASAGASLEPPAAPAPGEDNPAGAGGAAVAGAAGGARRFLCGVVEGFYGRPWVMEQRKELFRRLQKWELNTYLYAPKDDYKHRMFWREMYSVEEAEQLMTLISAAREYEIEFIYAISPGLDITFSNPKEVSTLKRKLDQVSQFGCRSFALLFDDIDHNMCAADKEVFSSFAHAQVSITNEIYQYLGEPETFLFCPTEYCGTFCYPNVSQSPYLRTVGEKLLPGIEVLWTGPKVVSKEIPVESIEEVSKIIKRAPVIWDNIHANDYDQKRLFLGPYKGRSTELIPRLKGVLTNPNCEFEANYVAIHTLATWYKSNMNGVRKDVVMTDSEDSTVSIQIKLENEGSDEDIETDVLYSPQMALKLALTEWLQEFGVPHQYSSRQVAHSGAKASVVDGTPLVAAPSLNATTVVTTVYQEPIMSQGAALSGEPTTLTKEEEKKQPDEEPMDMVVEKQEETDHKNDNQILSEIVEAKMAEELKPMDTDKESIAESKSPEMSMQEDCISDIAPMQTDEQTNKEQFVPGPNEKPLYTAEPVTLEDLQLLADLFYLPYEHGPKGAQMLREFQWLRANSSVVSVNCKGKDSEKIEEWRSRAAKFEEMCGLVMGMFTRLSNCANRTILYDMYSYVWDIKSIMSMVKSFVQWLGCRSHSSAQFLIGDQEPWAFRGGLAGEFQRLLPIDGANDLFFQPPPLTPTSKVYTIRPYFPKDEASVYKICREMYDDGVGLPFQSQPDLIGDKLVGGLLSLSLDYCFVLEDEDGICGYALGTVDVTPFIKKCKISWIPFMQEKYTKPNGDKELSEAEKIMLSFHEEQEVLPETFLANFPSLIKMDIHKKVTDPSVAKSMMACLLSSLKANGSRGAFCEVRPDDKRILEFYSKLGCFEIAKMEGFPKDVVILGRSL

The assay has as its target His-Tagged hOGA (human O-GlcNAcase) (Homo sapiens (Human), UniProt O60502). In words: Human O-GlcNAcase enzyme inhibition assay.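 Note: reactions contained 20 nM His-tagged hOGA enzyme with 10 µM FL-GlcNAc substrate.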 The note with it: OGA enzyme inhibition assay; FL-GlcNAc substrate, pH 6.5; activity classes defined in μM. Type of assay: biochemical. As to the method:
Then, 20 nM of His-Tagged hOGA and 10 μM of FL-GlcNAc (Fluorescein mono-beta-D-(2-deoxy-2-N-acetyl) glucopyranoside; Marker Gene Technologies Inc, M1485) were added to the 384-well plate for a final volume of 20 μl.

Regarding “N-(6-(4-(1-(quinoxalin-6-yl)ethyl)piperazin-1-yl)pyridin-3-yl)acetamide [Example 46]”, the IC50 is 0.05 to 0.2 µM.

(Values after patent publication US10556902B2 (Asceneuron SA, priority 2016, dated 2020).)
